Data published in patent publication US9427415B2, “Methods and compositions for modifying sensorial perception” (The Procter & Gamble Company, priority 2014, dated 2016).

Chains of the proteins cited; added tags and fusions are not shown.
UniProt O75762, whole entry R3C/R58T/K186N: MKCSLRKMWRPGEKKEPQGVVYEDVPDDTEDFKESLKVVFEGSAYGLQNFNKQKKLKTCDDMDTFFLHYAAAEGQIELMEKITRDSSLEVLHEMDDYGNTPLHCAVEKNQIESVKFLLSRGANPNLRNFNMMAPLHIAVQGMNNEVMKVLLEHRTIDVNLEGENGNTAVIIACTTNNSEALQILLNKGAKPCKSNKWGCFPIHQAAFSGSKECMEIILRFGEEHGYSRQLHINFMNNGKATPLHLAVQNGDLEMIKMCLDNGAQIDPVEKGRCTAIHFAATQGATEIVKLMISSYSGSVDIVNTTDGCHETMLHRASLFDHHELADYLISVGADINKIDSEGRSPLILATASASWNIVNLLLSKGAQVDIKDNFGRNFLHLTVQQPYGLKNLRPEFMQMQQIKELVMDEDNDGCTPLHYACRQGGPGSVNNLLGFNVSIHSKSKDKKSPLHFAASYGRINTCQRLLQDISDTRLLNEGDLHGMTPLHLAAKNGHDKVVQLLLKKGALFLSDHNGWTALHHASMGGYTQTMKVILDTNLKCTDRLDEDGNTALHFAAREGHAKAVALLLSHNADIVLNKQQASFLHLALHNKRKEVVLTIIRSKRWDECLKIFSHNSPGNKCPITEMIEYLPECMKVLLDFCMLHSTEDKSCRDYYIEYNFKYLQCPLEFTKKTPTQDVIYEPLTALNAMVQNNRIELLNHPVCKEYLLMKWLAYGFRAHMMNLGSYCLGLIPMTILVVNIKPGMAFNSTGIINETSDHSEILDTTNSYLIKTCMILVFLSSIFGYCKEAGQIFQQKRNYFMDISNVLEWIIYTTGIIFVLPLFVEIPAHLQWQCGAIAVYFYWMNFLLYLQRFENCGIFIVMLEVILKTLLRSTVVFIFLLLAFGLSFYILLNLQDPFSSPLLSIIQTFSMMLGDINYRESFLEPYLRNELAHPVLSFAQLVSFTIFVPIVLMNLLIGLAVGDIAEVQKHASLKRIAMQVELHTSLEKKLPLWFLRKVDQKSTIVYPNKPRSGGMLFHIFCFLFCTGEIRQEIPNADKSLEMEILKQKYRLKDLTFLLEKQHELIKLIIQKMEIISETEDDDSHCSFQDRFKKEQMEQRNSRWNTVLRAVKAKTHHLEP

Biological target: T1, human TRPA1 (Homo sapiens, UniProt O75762, K186N/R3C/R58T)
T1 construct: expressed in transfected cells; pcDNA3 control cells
Experiment: Intracellular calcium (Fluo-4, FLIPR) activation of TRPA1 cells by GRAS compounds;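 note: TRPA1-expressing cells, fluorescence read on a FLIPR Tetra (ex 488 nm, em 514 nm) every 2 s for 10 min after compound addition, baseline subtracted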
Type: cell-based
Conditions: Table 1(c); 1 mM; relative to AITC 30 μM

**Q.** For Ammonium carbonate, which “A1 activation, % of agonist value” is on record?
**A.** 52.81%
